Screening data from PubChem BioAssay.
SIRT5 block: SIRT5 desuccinylase inhibitors, primary screen, biochemical, fluorescence imaging, single point, set 5; 330,000 tested, 1.1% active; inhibition, % at 15 µM; AID 652115, 2013; NAD-dependent protein deacylase sirtuin-5, mitochondrial (Homo sapiens), Q9NXA8; Purified SirT5, succinyl-peptide AMC, trypsin-coupled fluorescence; in the data active = inhibition above about 15%
RAD54 branch: inhibitors of human RAD54 branch migration, primary screen, biochemical, fluorescence, single point | inhibition, % at 10.4 µM | 360,000 tested, 0.14% active | DNA repair and recombination protein RAD54-like (Homo sapiens), Q92698 | RAD54 Holliday junction branch migration, FAM/BHQ fluorescence | AID 602329, 2012;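 active = mean normalized replicate activity at least 40 and at least half of replicates scoring 40 or more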;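 note: 0% = median of neutral control wells and 100% = median of positive control wells; inhibitors cause a drop in the FAM fluorescence signal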
UUG fidelity: modulators of start codon recognition fidelity in yeast. S. cerevisiae UUG-firefly luciferase reporter, luminescence/redox ratio. activity score, % at 18.7 µM. 0.13% of 350,000 active. AID 602363;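 active = replicate mean at a twofold rise or more, about +100% in these data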;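 also: firefly luciferase made from a UUG start codon reports start codon fidelity; reporter light over untreated wells divided by growth signal over untreated wells; some hits fall short of that in this replicate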
E-selectin induc: E-selectin induction in HUVECs, primary screen, imaging, HUVEC, immunofluorescence imaging, single point; P16581; normalized: neutral wells 0, TNF-alpha wells 100; activation, % at 7.58 µM; 260,000 tested, 0.37% active; AID 686992, 2013;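 active = mean E-selectin-positive cell signal at least 10% of the positive control, reached in at least 60% of replicates, without over 20% cell loss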
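Test system – human umbilical vein endothelial cells (HUVEC), E-selectin induction · Input – 3,000 HUVEC seeded per well · Buffer or medium – EGM-2, gelatin · Compound dosing – single-point compound dose · Detection – immunofluorescence imaging · Measure – percent E-selectin-positive cells · Controls – TNF-alpha high, DMSO low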
MLL AF4-AF9 inh: inhibitors of AF4 peptide binding to AF9, primary screen, biochemical, AlphaScreen, biotin-AF4 peptide, FLAG-AF9, single point; 350,000 tested, 0.47% active; Protein AF-9 (Homo sapiens), P42568; inhibition, % at 10 µM; AID 651704, 2012;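 active = every replicate reaching a set inhibition limit, whatever the replicate mean, cut at about 25% in these data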;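 note: 0% = plate neutral control median and 100% = total signal loss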
RAD52 inh: RAD52 DNA annealing inhibitors, primary screen, biochemical, FRET, single point, set 2; AID 651710, 2012; recombinant RAD52 DNA annealing, FRET fluorescence; inhibition, % at 18.7 µM; 360,000 tested, 0.46% active; DNA repair protein RAD52 homolog (Homo sapiens), P43351;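 active = every replicate showing at least 50% inhibition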
Numbers without * were called inactive; x = no result. This is a sample that favours compounds with a hit; in the whole collection about 1.8% have one here.

Molecule	SIRT5 block	RAD54 branch	UUG fidelity	E-selectin induc	MLL AF4-AF9 inh	RAD52 inh
C[C@@H]1CN([C@@H](C)CO)C(=O)c2cc(NC(=O)Nc3ccc(F)cc3)ccc2O[C@@H]1CN(C)S(=O)(=O)c1cccs1	10	-23	x	161*	0	25
C[C@H](CO)N1C[C@H](C)[C@@H](CN(C)C(=O)C2CCC2)Oc2cc(C#C[C@@H](C)O)ccc2S1(=O)=O	-1	-6	4	1	-4	-7
CC(=O)N1[C@@H]2c3ccc(-c4cncnc4)c(=O)n3C[C@H]1[C@H](CO)[C@H]2C(=O)NC1Cc2ccccc2C1	-44	10	x	0	2	1
CC=Cc1ccc2n(c1=O)C[C@H]1[C@H](CO)[C@@H](C(=O)N3CCCCC3)N(CC3CC3)[C@@H]21 (mixture of isomers)	2	-6	24	0	-2	-16
COc1ccc(S(=O)(=O)N(C)C[C@@H]2Oc3ccc(NC(=O)Nc4ccc5c(c4)OCO5)cc3C(=O)N([C@@H](C)CO)C[C@@H]2C)cc1	2	2	-4	-2	4	-7
COc1ccc(S(=O)(=O)N(C)C[C@@H]2Oc3ccc(NC(=O)Nc4ccc5c(c4)OCO5)cc3C(=O)N([C@@H](C)CO)C[C@H]2C)cc1	9	57*	-17	-3	8	-5
COc1ccc2c3c(n(C)c2c1)[C@H](CO)N(C(=O)c1ccccc1)CC31CN(Cc2ccccc2OC)C1	x	x	x	-1	45*	x
CCC(=O)N1CC2(CN(Cc3ccc(Cl)cc3)C2)c2c(n(C)c3cc(OC)ccc23)[C@@H]1CO	-3	x	x	1	38*	-1

Continued; the last 3 above are carried over.
Molecule	SIRT5 block	RAD54 branch	UUG fidelity	E-selectin induc	MLL AF4-AF9 inh	RAD52 inh
COc1ccc(S(=O)(=O)N(C)C[C@@H]2Oc3ccc(NC(=O)Nc4ccc5c(c4)OCO5)cc3C(=O)N([C@@H](C)CO)C[C@H]2C)cc1	9	57*	-17	-3	8	-5
COc1ccc2c3c(n(C)c2c1)[C@H](CO)N(C(=O)c1ccccc1)CC31CN(Cc2ccccc2OC)C1	x	x	x	-1	45*	x
CCC(=O)N1CC2(CN(Cc3ccc(Cl)cc3)C2)c2c(n(C)c3cc(OC)ccc23)[C@@H]1CO	-3	x	x	1	38*	-1
CCC(=O)N1CC2(CN(Cc3ccc(Cl)cc3)C2)c2c(n(C)c3cc(OC)ccc23)[C@H]1CO	-4	x	x	0	29*	-8
COc1ccc2c3c(n(C)c2c1)[C@@H](CO)N(C(=O)C1CC1)CC31CN(Cc2ccccc2OC)C1	-1	x	x	1	24	24
CCC(=O)N1CC2(CN(Cc3ccc(F)cc3)C2)c2c(n(C)c3cc(OC)ccc23)[C@H]1CO	-5	x	x	0	5	17
CC1(C)Cc2ccccc2-c2nc3n(c(=O)c21)CCS3	-1	x	x	77*	0	-2
CC1(C)Cc2ccccc2-c2nc3n(c(=O)c21)CCCS3	-3	x	x	x	-3	-12
COc1ccc2c3c(n(C)c2c1)[C@@H](CO)N(Cc1cccnc1)CC31CCN(C(=O)c2cccnc2)CC1	1	x	x	0	1	-278
CC(=O)N(C)C[C@@H]1Oc2cc(-c3cccc(F)c3)ccc2S(=O)(=O)N([C@H](C)CO)C[C@@H]1C	3	3	17	0	-2	3
Nc1nc(-c2ccc(C(=O)O)cc2)cs1	38*	x	x	x	-2	-6
O=C(C[C@H]1CC[C@H]2[C@@H](COC[C@H](O)CN2Cc2ccc(Oc3ccccc3)cc2)O1)N1CCCCC1	2	-2	7	0	4	20
Nc1ccc2ccccc2c1N=Nc1ccccc1	-1	-9	-5	5	36*	0
CCNC(=O)Nc1ccc2c(c1)C(=O)N(C)[C@H]1CC[C@H](CC(=O)NCCN3CCCC3)O[C@@H]1CO2	x	9	8	0	x	x
COc1ccc2c(c1)C(=O)O[C@@H](c1ccccc1)C[C@@H](O)C(=O)CC2	20*	x	x	0	-16	-12
CCn1c(C)cc(/C=C2/SC(=S)N(CC(=O)O)C2=O)c1C	15*	x	x	-6	0	-233
CC1Oc2ccccc2N(CC(=O)N2CCCCC2)C1=O (stereo unspecified)	1	-2	-12	x	30*	0
Cc1ccc(S(=O)(=O)Nc2ccc(N(C)C)cc2)cc1	112*	x	x	x	15	-1
CN(C)c1ccc(NS(=O)(=O)c2ccc(-c3csnn3)cc2)cc1	x	8	-8	0	7	2
Cn1c(SCc2ccc(C#N)cc2)nnc1-c1cccc(Cl)c1	x	1	-18	x	x	x
